Values of other authors, collected in publication PMC3591448, “Profile of the GSK Published Protein Kinase Inhibitor Set Across ATP-Dependent and-Independent Luciferases: Implications for Reporter-Gene Assays” (PLoS ONE, 2013).

Test system: GSK3α
Parameters: method as in Witherington, J., et al. 2003
Conditions: ref Witherington, J., et al. 2003; read-out: PKI IC50 (µM), GSK3α; cited from earlier work

COc1ccc(-c2ccc3c(NC(=O)C4CC4)n[nH]c3n2)cc1 [SB-711237]
IC50: > 5 µM
